This note sets out measurements from patent US7989464B2, “mGluR1 antagonists as therapeutic agents” (Schering Corporation, priority 2004, dated 2011).

Protein sequences, listed by entry. Tags and fused reporters are not part of them. Residues count along the entry.
UniProt Q13255, 19-1194 limits assumed: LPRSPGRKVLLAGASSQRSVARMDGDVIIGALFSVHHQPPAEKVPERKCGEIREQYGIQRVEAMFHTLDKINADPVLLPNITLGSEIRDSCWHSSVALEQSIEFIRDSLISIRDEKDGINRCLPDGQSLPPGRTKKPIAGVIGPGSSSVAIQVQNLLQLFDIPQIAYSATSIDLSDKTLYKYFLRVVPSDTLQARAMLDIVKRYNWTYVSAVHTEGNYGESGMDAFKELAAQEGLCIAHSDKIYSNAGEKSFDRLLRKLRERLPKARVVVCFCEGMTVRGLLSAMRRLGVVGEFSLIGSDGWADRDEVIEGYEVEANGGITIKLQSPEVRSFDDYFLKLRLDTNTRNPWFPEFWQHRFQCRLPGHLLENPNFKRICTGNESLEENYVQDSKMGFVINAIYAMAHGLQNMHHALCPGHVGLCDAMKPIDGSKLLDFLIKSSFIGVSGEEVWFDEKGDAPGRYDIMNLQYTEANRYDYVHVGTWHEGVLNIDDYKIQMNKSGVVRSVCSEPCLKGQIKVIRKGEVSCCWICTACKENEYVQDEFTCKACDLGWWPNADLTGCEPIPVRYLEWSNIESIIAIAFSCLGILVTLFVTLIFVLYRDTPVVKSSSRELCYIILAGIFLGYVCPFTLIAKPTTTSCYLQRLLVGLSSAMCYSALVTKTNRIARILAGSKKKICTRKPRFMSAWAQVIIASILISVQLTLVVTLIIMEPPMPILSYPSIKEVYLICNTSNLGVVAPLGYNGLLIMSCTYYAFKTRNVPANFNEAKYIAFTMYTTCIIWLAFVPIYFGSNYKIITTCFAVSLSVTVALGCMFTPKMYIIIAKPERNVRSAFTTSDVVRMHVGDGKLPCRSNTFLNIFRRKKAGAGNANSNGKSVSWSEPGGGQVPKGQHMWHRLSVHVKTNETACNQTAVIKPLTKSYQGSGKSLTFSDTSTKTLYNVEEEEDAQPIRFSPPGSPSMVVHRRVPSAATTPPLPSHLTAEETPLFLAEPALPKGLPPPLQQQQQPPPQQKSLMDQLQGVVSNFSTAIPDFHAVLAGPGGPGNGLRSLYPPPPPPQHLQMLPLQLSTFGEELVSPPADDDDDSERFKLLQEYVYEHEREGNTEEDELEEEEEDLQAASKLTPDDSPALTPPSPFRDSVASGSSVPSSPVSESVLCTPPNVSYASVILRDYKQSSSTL

The assay concerns the target hmGluR1 receptor (Homo sapiens, UniProt Q13255). The assay can be described thus: IC50 determination: intracellular calcium mobilization (FLIPR) upon Quisqualate stimulation in CHO cells stably expressing hmGluR1. The assay is classed as cell-based. As to conditions: read-out: IC50 Class, against Quisqualate 1 μM (EC80).

pIC50: −log10 of the molar value.

On to `Cc1ccc(-n2cnc3c(sc4nccc(CN)c43)c2=O)cc1`, for which the pIC50 (as a rule, the negative decadic logarithm of the IC50, by convention in mol/L) is less than 6.00.
